This passage reports inhibition results from PubChem BioAssay AID873 (PCMD, 2007).

The chains behind the UniProt entries cited, without tags or fusion partners. Residues count along the entry.
UniProt Q9Y337, 67-293 limits assumed: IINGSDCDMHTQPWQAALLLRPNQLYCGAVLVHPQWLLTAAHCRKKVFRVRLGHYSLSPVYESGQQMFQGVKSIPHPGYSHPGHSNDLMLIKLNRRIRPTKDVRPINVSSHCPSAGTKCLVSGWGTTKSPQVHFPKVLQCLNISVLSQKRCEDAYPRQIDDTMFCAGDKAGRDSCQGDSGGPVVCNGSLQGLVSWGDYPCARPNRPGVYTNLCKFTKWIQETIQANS

The entries are a selection whose mix differs from that of the whole data set. Active and inactive are the calls of the source.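 How the source made its calls: active means inhibition of 40% or more; inactive means the rest.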

For the assay, the target named is Kallikrein-5 (Homo sapiens) (UniProt Q9Y337). Nature of the assay: inhibition of kallikrein 5 (hK5) activity – biochemical, 1536-well, primary screen (AID 873).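 Further: 0% = enzyme controls without compound and 100% = no-enzyme blanks.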 Conditions: recombinant hK5, fluorogenic AMC substrate cleavage; at 5 µM; stronger effect = higher value.
As a reminder, the inhibition is the relative decrease from the control value, in per cent. Consider `c1nnnn1CCn1cnnn1`, for which the inhibition is inactive: -3.81%.
